The target in the assay is Adenosine receptor A1 (Rattus norvegicus, UniProt P25099). Description: Binding affinity of specific [3H]R-PIA binding to rat Adenosine A1 receptor in HEK293 cells. Type of assay: cell-based.

By UniProt entry, the sequences of proteins in these tests, tags left out.
UniProt P25099, whole entry: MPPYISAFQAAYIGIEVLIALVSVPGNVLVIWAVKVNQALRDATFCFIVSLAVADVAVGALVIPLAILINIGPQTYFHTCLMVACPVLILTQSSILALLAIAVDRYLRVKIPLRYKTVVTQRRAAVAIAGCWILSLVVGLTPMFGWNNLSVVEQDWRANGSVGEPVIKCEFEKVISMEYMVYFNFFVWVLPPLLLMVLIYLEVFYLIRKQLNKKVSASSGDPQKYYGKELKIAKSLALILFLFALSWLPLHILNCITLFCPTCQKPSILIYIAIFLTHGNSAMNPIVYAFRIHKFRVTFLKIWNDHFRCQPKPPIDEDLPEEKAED

Here are results for one compound from ChEMBL document CHEMBL1135414, “Structure-activity relationships at human and rat A2B adenosine receptors of xanthine derivatives substituted at the 1-, 3-, 7-, and 8-positions” (J Med Chem, 2002).

pKi: −log10 of the molar value.

Broadly, the pKi is the negative decadic logarithm of the Ki, by convention in mol/L. Low values mean a large Ki, high ones a small Ki. On to `CCCCn1c(=O)[nH]c2nc[nH]c2c1=O`, for which the pKi is 5.05.
